Measured values taken from PMC6522914, “Benzonate derivatives of acetophenone as potent α-glucosidase inhibitors: synthesis, structure–activity relationship and mechanism” (Journal of Enzyme Inhibition and Medicinal Chemistry, 2019).

System: intestinal α-glucosidase
Experiment: Everted intestinal sleeve assay
Set-up: species or system Sprague–Dawley rats
Details: 0.17 mM inhibitor, sucrose 1.5 mM, versus blank
Experimental: ^1H NMR and ^13 C NMR spectra were carried out using a 500 MHz Avance spectrometer (Bruker, USA) or a Varian Mercury 400 MHz spectrometer. Chemical shifts were measured relative to the residual solvent peaks of CDCl3 with tetramethylsilane as the internal standard. High-resolution mass spectra were recorded on an AB SCIEX Triple TOF 5600+ spectrometer. The in vitro inhibitory activity and kinetic assay of α-glucosidase were measured by a microplate reader (Synergy HTX, BioTek Instruments Inc., Winooski, VT, USA). Fluorescence spectra were conducted on a spectrofluorometer (LS55, Perkin Elmer Inc., Waltham, MA, USA). All of the CD spectra were measured at 298 K with a circular spectrometer (Chirascan, Applied Photophysics Ltd., UK). Titration microcalorimetry measurement conducted on a Nano-ITC SV instrument (TA Instruments Ltd., UK). The surgeries were performed under anesthesia and all efforts were made to minimise animal suffering. The blood glucose levels were determined via a glucose detection kit (Robio Co., Ltd., Shanghai, China). […] The concentrations of glucose in the soaking solution and intestinal sleeve were detected using S-10 biosensor analyzer (Sieman Technology Co., Ltd., Shenzhen, China). All reaction progress was monitored by thin-layer chromatography (TLC) on silica gel GF254 (Qingdao Haiyang Chemical Co., Ltd., Qingdao, China) with ultraviolet detection. […]

- total concentration of glucose (5–90 min): much lower than that of the blank
- glucose concentration in the intestinal sleeves: lower than that of blank
SMILES: C[C@H]1O[C@H](O[C@H]2[C@H](O)[C@@H](O)[C@@H](O[C@H]3[C@H](O)[C@@H](O)C(O)O[C@@H]3CO)O[C@@H]2CO)[C@H](O)[C@@H](O)[C@@H]1N[C@H]1C=C(CO)[C@@H](O)[C@H](O)[C@H]1O (some centres unmarked) [Acarbose, acarbose, reference compound]
